In patent US7622446B2, “Polypeptides, derivatives and uses thereof” (The Open University, priority 2001, dated 2009):

System: chicks
Experiment: Effect of β-amyloid 12-28 on memory formation, passive avoidance task, strong training
Assay type: in vivo, chick
Settings: FIG. 2; injected into the brain 30 minutes pretraining; memory tested 30 minutes posttraining
Procedure: Commercially obtained Ross Chunky eggs were incubated and hatched in brooders and held until 16±6 hours old. Chicks were placed in pairs in small aluminium pens. Following an equilibration period of an hour, the chicks were pretrained and trained essentially as described by Lossner and Rose (J. Neurochem. 41, 1357-1363 (1983), the contents of which are incorporated herein by reference). Pretraining involved three 10 s presentations of a small (2 mm diameter) white bead, at approximately 5 minute intervals. […] Two training techniques were used: “strong” and “weak” training. In both, 5 to 10 minutes after the last pre-training trial, chicks were trained by a 10 s presentation of a 4 mm diameter chrome bead, which had been dipped in the bitter-tasting methylanthranilate. Control chicks pecked at a water-coated or dry bead. In the “strong” version of the task, 100% methylanthranilate was used. In the “weak” version, 10% methylanthranilate was used. Chicks spontaneously pecked at the training or control beads within 20 s. Chicks that peck at the bitter bead evinced a disgust reaction and would not normally peck at a similar, but dry bead for some hours subsequently. […] Recall is calculated as a percent avoidance score (percentage of chicks which avoid the chrome bead) and as a discrimination score (percentage of chicks which avoid the chrome but peck at the white bead). […]

## Val-His-His-Gln-Lys-Leu-Val-Phe-Phe-Ala-Glu-Asp-Val-Gly-Ser-Asn-Lys (VHHQKLVFFAEDVGSNK) [β-amyloid 12-28, amnesia-inducing agent]
  effect on memory formation (percent avoidance: total avoidance and discrimination): results in amnesia
